Sequences of proteins named here, by UniProt entry; tags and fusion partners are left off.
UniProt P42336, whole entry: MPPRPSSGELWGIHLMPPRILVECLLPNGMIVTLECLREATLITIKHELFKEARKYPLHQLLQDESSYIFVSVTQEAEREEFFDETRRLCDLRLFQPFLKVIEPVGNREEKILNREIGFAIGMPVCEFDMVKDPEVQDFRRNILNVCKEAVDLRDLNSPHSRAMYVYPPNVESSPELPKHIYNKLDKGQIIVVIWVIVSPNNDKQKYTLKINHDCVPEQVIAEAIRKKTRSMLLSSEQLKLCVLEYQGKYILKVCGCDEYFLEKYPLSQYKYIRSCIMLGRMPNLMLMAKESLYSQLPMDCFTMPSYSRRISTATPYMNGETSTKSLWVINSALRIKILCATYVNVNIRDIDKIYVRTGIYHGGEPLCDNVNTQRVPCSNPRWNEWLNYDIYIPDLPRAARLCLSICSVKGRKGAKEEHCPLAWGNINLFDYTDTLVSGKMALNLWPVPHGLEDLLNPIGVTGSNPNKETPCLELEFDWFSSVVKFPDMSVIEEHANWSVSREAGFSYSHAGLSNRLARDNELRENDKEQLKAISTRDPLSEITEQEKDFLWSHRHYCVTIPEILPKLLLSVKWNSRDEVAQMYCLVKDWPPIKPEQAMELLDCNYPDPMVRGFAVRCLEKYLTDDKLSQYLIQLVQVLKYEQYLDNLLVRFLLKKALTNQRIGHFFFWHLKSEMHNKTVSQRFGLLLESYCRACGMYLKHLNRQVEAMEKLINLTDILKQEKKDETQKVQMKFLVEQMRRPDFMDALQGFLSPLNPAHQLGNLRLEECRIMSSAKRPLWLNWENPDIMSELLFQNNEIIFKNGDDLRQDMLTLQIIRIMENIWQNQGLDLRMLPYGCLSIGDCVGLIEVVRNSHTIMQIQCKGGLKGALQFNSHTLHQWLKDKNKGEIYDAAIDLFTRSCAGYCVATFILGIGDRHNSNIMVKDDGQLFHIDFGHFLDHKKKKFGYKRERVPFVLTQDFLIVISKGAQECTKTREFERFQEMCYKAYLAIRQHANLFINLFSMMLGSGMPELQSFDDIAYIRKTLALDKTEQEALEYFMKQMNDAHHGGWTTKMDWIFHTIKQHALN

In ChEMBL document CHEMBL1287774, “Discovery of new azaindole-based PI3Kα inhibitors: apoptotic and antiangiogenic effect on cancer cells” (Bioorg Med Chem Lett, 2010):

Molecular target: Phosphatidylinositol 4,5-bisphosphate 3-kinase catalytic subunit alpha isoform (Homo sapiens, UniProt P42336)
Test: Inhibition of PI3Kalpha

IC50: 16 nM
SMILES: COc1ccc(-c2c[nH]c3ncc(-c4cnc(N)c(NS(=O)(=O)N5CCOCC5)c4)cc23)cc1OC
